Bioassay records deposited in PubChem by ICCB-Longwood Screening Facility, Harvard Medical School.
This excerpt belongs to a sample that is enriched for hits.
GIV-Gai inh – blocks GIV peptide binding to rat Galpha-i3; P08753; Galpha-i3/FITC-GIV peptide fluorescence polarization, 90 min; stronger effect = lower value; scaled: aluminum fluoride 0%, vehicle 100%; percent of control (FP), % (no concentration beside the values); 210,000 tested, 0.42% active; AID 1224905;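 active = replicate mean at 85% of control or lower, very high polarization wells dropped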;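 also: wells of about 15 µL received 100 nL stock; the first replicate is given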
An asterisk follows results filed as active.

SMILES | GIV-Gai inh
COc1cccc2c1Oc1nc(-c3ccccc3)nc(SCC(=O)N(C)c3ccccc3)c1C2 | -21*
COc1cccc2c1Oc1nc(-c3ccccc3)nc(SC(F)F)c1C2 | 110
CCCCCCCCn1c2cc(Cl)cc(Cl)c2c2c(Cl)cc(Cl)cc21 | 101
CCCCCN1/C(=C\C=C\c2n(CCCC)c3cc(Cl)c(Cl)cc3[n+]2CCCCC)N(CCCC)c2cc(Cl)c(Cl)cc21 | -62*
CCCCCCC(CC[n+]1c(/C=C/C=C2N(CC)c3cc(Cl)c(Cl)cc3N2CC)n(CC)c2cc(Cl)c(Cl)cc21)S(=O)(=O)[O-] (configuration not stated) | 109
CCOC(=O)c1nc(Nc2cccc(NC(C)=O)c2)c2ccccc2n1 | 103
Cc1sc(C)c(S(=O)(=O)Nc2cccc(Cl)c2)c1-c1cc(C(F)(F)F)on1 | 100
CC(C)Cc1ccc(S(=O)(=O)Nc2cc3[nH]c(=O)[nH]c3cc2Cl)cc1 | 110
Cn1c(=O)c2nc3ccc(N)cc3nc2n(C)c1=O | 19*
Cn1c(=O)c2nc3ccc(NC(=O)Nc4ccccc4)cc3nc2n(C)c1=O | 107
Cn1c(=O)c2nc3ccc(NC(=O)c4ccccc4)cc3nc2n(C)c1=O | 110
C/C=C/C1(/[N+]([O-])=C/c2ccccc2)CCCCC1 | 103
Cc1ccc(NC(=O)c2ccc3c(c2)S(=O)(=O)N=CN3CCc2ccccc2)cc1 | 107
CCc1cc2c(NCCCOC)ncnc2s1 | 107
COC(=O)c1sc2nc3ccccc3cc2c1N | 113
Cc1ccc2nc3sc(C(=O)O)c(N)c3cc2c1 | 105
CC(=O)Nc1c(C(=O)N2CCOCC2)sc2nc3c(cc12)COC(C)(C)C3 | 111
Cc1cc(C)c2nc3sc(C(=O)N4CCOCC4)c(N)c3cc2c1 | -49*
Nc1c(C(=O)N2CCOCC2)sc2nc3c(cc12)CCCC3 | 105
COc1ccc2nc3sc(C(=O)N4CCCC4)c(N)c3cc2c1 | -62*
Oc1ccccc1-c1nc2cnccn2c1Nc1ccccc1 | 105
O=C(O)c1cccc(NS(=O)(=O)c2cc3c4c(cccc4c2)C(=O)NC3=O)c1 | 91
CC(C)n1nnc2cc(S(=O)(=O)N3CCCC3C(=O)NCCN(C)C3CCCCC3)ccc21 (configuration not stated) | 103
Cc1c(Cl)cccc1NCc1nc2nc3c(c(=O)n2[nH]1)CCC3 | 106
COc1ccc(/C=c2\sc3n(c2=O)C(c2c(OC)ccc4ccccc24)C(C(C)=O)=C(C)N=3)c(OC)c1 (configuration not stated) | 100

Arranged by length of the SMILES (lowest first): five of the compounds above
SMILES | GIV-Gai inh
CCc1cc2c(NCCCOC)ncnc2s1 | 107
COC(=O)c1sc2nc3ccccc3cc2c1N | 113
Cn1c(=O)c2nc3ccc(NC(=O)Nc4ccccc4)cc3nc2n(C)c1=O | 107
Cc1ccc(NC(=O)c2ccc3c(c2)S(=O)(=O)N=CN3CCc2ccccc2)cc1 | 107
CCCCCCC(CC[n+]1c(/C=C/C=C2N(CC)c3cc(Cl)c(Cl)cc3N2CC)n(CC)c2cc(Cl)c(Cl)cc21)S(=O)(=O)[O-] (configuration not stated) | 109

The listing picks up with the 3 entries that preceded the break.
SMILES | GIV-Gai inh
CC(C)n1nnc2cc(S(=O)(=O)N3CCCC3C(=O)NCCN(C)C3CCCCC3)ccc21 (configuration not stated) | 103
Cc1c(Cl)cccc1NCc1nc2nc3c(c(=O)n2[nH]1)CCC3 | 106
COc1ccc(/C=c2\sc3n(c2=O)C(c2c(OC)ccc4ccccc24)C(C(C)=O)=C(C)N=3)c(OC)c1 (configuration not stated) | 100
O=C(c1ccc(N2CCOCC2)nc1)N1CCCC1 | 98
O=C(O)c1cccc2cccc(C(=O)O)c12 | 98
Nc1ccc(C(=O)O)c2c(C(=O)O)cccc12 | 72*
O=C(O)c1ccc2c3c(cccc13)CC2 | 100
Cc1nn(-c2ccc3nnc(C)n3n2)c(C)c1CCC(=O)NCCc1c[nH]c2ccccc12 | 104
CCN(CC)C(=O)CN(C)S(=O)(=O)c1cc2c(cc1Cl)NC(=O)CO2 | 107
O=c1cc(CN2CCCc3ccccc32)nc2sccn12 | -43*
O=c1cc(CSc2ccccc2)nc2sccn12 | 106
CCCc1nn2c(=O)cc(CN3CCCc4ccccc43)nc2s1 | 159
CN(C)c1ccc(/C=C2/C(=O)c3ccc(C(=O)O)cc3C2=O)cc1 | -73*
CN(C)c1ccc(/C=C/C=C2C(=O)c3ccccc3C2=O)cc1 | 117
CC(C)(C)C1(C)OC(=O)C(=Cc2ccc(C(=O)O)cc2)C(=O)O1 (configuration not stated) | 93
CCOC(=O)N1CCN(C(=O)c2cc(I)ccc2NC(=O)c2ccco2)CC1 | 108
CCOc1ccccc1C(=O)NCc1n[nH]c(=O)c2ccccc12 | 99
Cc1ccc2ncc(C(=O)c3ccccc3)c(N3CCOCC3)c2c1 | 93
C=CCN1C(=O)/C(=C\c2ccccc2)C(C(=O)OC)=C1C | 99
COC(=O)C1=C(C)N(Cc2ccccc2)C(=O)/C1=C\c1cccc(Cl)c1 | 51*
COC(=O)C1=C(C)N(Cc2ccccc2)C(=O)/C1=C\c1cccc(O)c1 | 108
COc1cccc(C(=O)Nc2cccc(-c3ccc(N4CCN(C)CC4)nn3)c2)c1 | 108
COc1ccc(-n2ccc(=O)c(-c3nc(-c4cccc(F)c4)no3)n2)cc1 | 98
Cc1c(C#N)c2nc3ccccc3n2c(=O)/c1=C\Nn1cnnc1 | 118
Cc1c(C#N)c2nc3ccccc3n2c(=O)/c1=C\Nc1cccc(NC(=O)c2ccccc2)c1 | -67*
CCc1ccc(-n2[nH]c(=O)c(/C=c3/c(C)c(C#N)c4nc5ccccc5n4c3=O)c2O)cc1 | 110
CCn1nc(-n2cnnc2)c(NS(=O)(=O)c2ccccc2)c1C | 97
CN(C)C(=O)c1ccccc1-c1ccccc1C(=O)O | 100

Next section.
SMILES | GIV-Gai inh
O=C(O)c1ccccc1C1=Nc2ccc(O)cc2Oc2cc(O)ccc21 | -91*
O=C(O)c1ccccc1-c1ccccc1C(=O)O | 110
O=C(Nc1ccc(N2CCOCC2)cc1)C1CCN(c2ncc(-c3ccccc3)cn2)CC1 | 105
O=C(NCCCN1CCCCCC1)c1cc2c(s1)-c1ccccc1OC2 | 104
CCOc1ccccc1Nc1c(C(=O)N2CCOCC2)cnc2ccccc12 | 104
Cc1c(Cl)cccc1Nc1c(C(=O)N2CCOCC2)cnc2ccccc12 | 99
COc1cc(OC)c(Nc2c(C(=O)N3CCOCC3)cnc3ccccc23)cc1Cl | 85*
CCC(NS(=O)(=O)c1ccc(OC)cc1)C(=O)NC1CCCCC1C (configuration not stated) | 105
CCCCn1c(CN2CCCC2)nc2cc(NC(=O)C3CCCCC3)ccc21 | 94
O=C(CSCc1ccccc1Cl)N/N=C/c1ccc(O)cc1O | 109
Cc1cccc(N2CC(C(=O)Nc3cccc(-c4nc(-c5ccccc5)no4)c3)CC2=O)c1 (configuration not stated) | 110
CCCN1CCc2c(sc(NC(=O)c3ccc(S(=O)(=O)N4CCOCC4)cc3)c2C(=O)OC)C1 | 196
CCCN1CCc2c(sc(NC(=S)NC(=O)c3ccccc3)c2C#N)C1 | -59*
CCOC(=O)c1c(NC(=S)NC(=O)c2ccccc2)sc2c1CC(C)(C)OC2 | 100
O=C1/C(=C/c2ccco2)CN(Cc2ccccc2)C/C1=C\c1ccco1 | 116
CC(C)c1cc(C2CCCN2Cc2ccncc2)no1 (configuration not stated) | 106
CCOC(=O)C1=C(O)/C(=C/c2ccc(N3CCOCC3)o2)SC1=Nc1ccc(OCC)cc1 | -15*
CCOC(=O)C1=C(O)/C(=C/c2ccc(OC)cc2)SC1=Nc1ccc(OC)cc1 | 107
CCOC(=O)C1=C(O)/C(=C/c2ccc(OCC)cc2)SC1=Nc1ccccc1 | 112
N#CC(C#N)=CC1=C(N2CCCC2)CCCC1 | 110
CC(C)Cn1cc(C(=O)N2CCC(Cc3ccccc3)CC2)c2c3ccccc3n(C)c2c1=O | 105
COc1ccc(OC)c(C(=O)c2c(N)c(-c3nc(-c4ccccc4)cs3)c3ccccn23)c1 | 104
COc1ccc(/C=C2/SC(=O)N(CNc3ccc(OC)c(Cl)c3)C2=O)cc1 | 103
CC1(C)Cc2c(sc3nc(NN)n(Cc4ccccc4)c(=O)c23)CO1 | 109
CN1CCc2c(sc3c2C(=O)NC(c2ccc(OC(=O)c4ccccc4)cc2)N3)C1 (configuration not stated) | 23*
CN1CCc2c(sc3c2C(=O)NC(c2ccc(OC(=O)c4ccc(Cl)cc4)cc2)N3)C1 (configuration not stated) | 221
CN1CCc2c(sc3c2C(=O)NC(c2ccc(OC(=O)c4ccc(C(C)(C)C)cc4)cc2)N3)C1 (configuration not stated) | 159
